Broadly, the IC50 is the point on the concentration scale where inhibition reaches its midpoint. As usually defined, the GI50 is the concentration giving 50% growth inhibition. The low end stands for more potent growth inhibition, the high end for less potent growth inhibition. One may read the EC50 as the concentration needed to bring the measured effect to its halfway point.

What all share (format): cell-based
The test system of test [1] is MCF10A cells. Nature of the test: Cell viability assay, MCF10A. The conditions noted are these: MCF10A vs MCF7 (Figure S4).
Test [2] concerns Akt1 (Ser129) phosphorylation in 786-O cells. Nature of the test: CK2 inhibition in cells, Western Blot of Phospho-Akt1. The conditions noted are these: Homo sapiens, 786-0, 24 h, read-out: IC50 cellular CK2. On the technique in general: In western blotting, separated proteins are transferred to a membrane and probed.
Test [3] deals with 786-O cells. The test can be described thus: Cell viability assay. Conditions: Homo sapiens, 786-0.
Test [4] relates to STAT3-Tyr705 phosphorylation in 786-O cells. The test can be described thus: STAT3 activation, Western Blot of STAT3-Tyr705 phosphorylation. Conditions: Homo sapiens, 786-0, read-out: EC50, inhibition of STAT3 activation.

For `O=C(O)c1ccc2c(c1)nc(Nc1cccc(Cl)c1)c1ccncc12` [CX-4945, 5-(3-chlorophenylamino)benzo[c][2,6]naphthyridine-8-carboxylic acid], in test [1], the “times stronger cell growth inhibition of MCF10A than of MCF7” value was 5 times. For the same molecule, the IC50 in test [2] is about 1 µM. The GI50 in test [3] turned out to be 6 µM. In addition, in test [4], the EC50 amounted to 5.3 µM.
